Compound activity (PubChem)
A selection: hits, their analogues and other compounds. The true share with any hit is near 2.3%.
ARFGAP1 inh – inhibitors of rat ARFGAP1 GAP activity, primary screen, biochemical, fluorescence polarization, GDP tracer | Arfgap1-stimulated ARF1 GTP hydrolysis, GDP FP detection | inhibition, % at 16.5 µM | 360,000 compounds, 0.26% hits | AID 651572, 2012;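 active = inhibition above a per-plate limit, mean inhibition of low control wells plus 3 SD, cut at about 25% in these data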;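 also: 0% = DMSO wells with enzyme and 100% = wells lacking Arfgap1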
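Material: rat Arfgap1 catalytic domain, aa 1-136; also added: human ARF1(Δ1-17)-GTP substrate; compound dosing: one concentration, 16.5 µM, DMSO 1.26%; incubation: GTP hydrolysis reaction 2 h at 25 °C; measured by: Tracer-displacement fluorescence polarization with EDTA stop, 620/688 nm; evaluation: % inhibition from polarization; repeats: one replicate per compound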
MC4R barr agon – MC4R agonists recruiting beta-arrestin, primary screen, cell-based, luminescence, agonist arm of biased-ligand search. activation, % at 8.9 µM. 360,000 compounds, 0.98% hits. U2OS MC4R beta-arrestin complementation; percent of melanotan II response, DMSO zero;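 active = activation above a per-plate cutoff, the mean activation of sample wells on that plate plus 3 SD, cut at about 8% in these data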
MC4R antagonist – MC4R antagonists of cAMP signaling, primary screen, cell-based, TR-FRET, antagonist arm of biased-ligand search; AID 540295, 2011; MC4R-expressing cells, MTII-stimulated cAMP, LANCE TR-FRET; inhibition, % at 6.5 µM; Melanocortin receptor 4 (Homo sapiens), P32245; 360,000 compounds, 0.48% hits;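 active = inhibition above its plate's cutoff, the mean of tested wells on that plate plus 3 SD, cut at about 29% in these data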;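 also: 0% = Melanotan II alone and 100% = Melanotan II plus saturating MCL0020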
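Material – human MC4R-expressing U2OS cells · Repeats – no replicates · Detection – TR-FRET with Eu-cAMP and labeled anti-cAMP, 671 nm · Times – compound 30 min, challenge 1 h, detection 1 h · Compound – single nominal compound dose of 6.5 µM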
Yeast UUG start – alters start codon recognition fidelity in yeast | S. cerevisiae UUG-firefly luciferase reporter, luminescence/redox ratio | activity score, % at 18.7 µM | hit rate 0.13% among 350,000 | AID 602363;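 active means replicate mean at a twofold rise or more, about +100% in these data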;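 further: firefly luciferase made from a UUG start codon reports start codon fidelity; reporter light over untreated wells divided by growth signal over untreated wells; some hits fall short of that in this replicate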
ASAP1 GAP inh – inhibitors of human ASAP1 ArfGAP activity, primary screen, biochemical, fluorescence polarization; ASAP1-stimulated ARF1 GTP hydrolysis, GDP FP detection; Arf-GAP with SH3 domain, ANK repeat and PH domain-containing protein 1 (Homo sapiens), …; inhibition, % at 16.5 µM; 360,000 compounds, 0.19% hits; AID 624377, 2012; in the data active = inhibition above about 25%;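 also: 0% = vehicle with enzyme and substrate and 100% = no enzyme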
CendR NRP1 mod – modulators of CendR peptide binding to NRP-1, primary screen, biochemical, fluorescence polarization, uHTS; Neuropilin-1 (Homo sapiens), O14786; FAM-RPARPAR peptide binding to NRP-1; inhibition, % at 25 µM; 360,000 compounds, 0.85% hits; AID 602438, 2012;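 active = inhibition or corrected inhibition above about 18%, plus a signal ratio from 0.5 to 1.5, limit read from the data, passing the limit was not always enough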
Active calls of the source: *.

Amino acid sequences for entries named in this document (tags omitted).
Melanocortin receptor 4 (Homo sapiens), P32245, UniProt P32245, whole entry, looked up: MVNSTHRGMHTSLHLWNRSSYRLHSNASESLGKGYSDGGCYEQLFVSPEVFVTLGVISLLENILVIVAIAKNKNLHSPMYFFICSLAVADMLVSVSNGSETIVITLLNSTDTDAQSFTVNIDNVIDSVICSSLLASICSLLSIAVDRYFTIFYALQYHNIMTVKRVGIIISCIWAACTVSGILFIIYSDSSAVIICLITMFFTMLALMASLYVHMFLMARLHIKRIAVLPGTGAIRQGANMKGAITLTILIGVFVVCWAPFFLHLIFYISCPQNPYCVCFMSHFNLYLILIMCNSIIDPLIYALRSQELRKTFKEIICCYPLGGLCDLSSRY
Neuropilin-1 (Homo sapiens), O14786, UniProt O14786, whole entry, looked up: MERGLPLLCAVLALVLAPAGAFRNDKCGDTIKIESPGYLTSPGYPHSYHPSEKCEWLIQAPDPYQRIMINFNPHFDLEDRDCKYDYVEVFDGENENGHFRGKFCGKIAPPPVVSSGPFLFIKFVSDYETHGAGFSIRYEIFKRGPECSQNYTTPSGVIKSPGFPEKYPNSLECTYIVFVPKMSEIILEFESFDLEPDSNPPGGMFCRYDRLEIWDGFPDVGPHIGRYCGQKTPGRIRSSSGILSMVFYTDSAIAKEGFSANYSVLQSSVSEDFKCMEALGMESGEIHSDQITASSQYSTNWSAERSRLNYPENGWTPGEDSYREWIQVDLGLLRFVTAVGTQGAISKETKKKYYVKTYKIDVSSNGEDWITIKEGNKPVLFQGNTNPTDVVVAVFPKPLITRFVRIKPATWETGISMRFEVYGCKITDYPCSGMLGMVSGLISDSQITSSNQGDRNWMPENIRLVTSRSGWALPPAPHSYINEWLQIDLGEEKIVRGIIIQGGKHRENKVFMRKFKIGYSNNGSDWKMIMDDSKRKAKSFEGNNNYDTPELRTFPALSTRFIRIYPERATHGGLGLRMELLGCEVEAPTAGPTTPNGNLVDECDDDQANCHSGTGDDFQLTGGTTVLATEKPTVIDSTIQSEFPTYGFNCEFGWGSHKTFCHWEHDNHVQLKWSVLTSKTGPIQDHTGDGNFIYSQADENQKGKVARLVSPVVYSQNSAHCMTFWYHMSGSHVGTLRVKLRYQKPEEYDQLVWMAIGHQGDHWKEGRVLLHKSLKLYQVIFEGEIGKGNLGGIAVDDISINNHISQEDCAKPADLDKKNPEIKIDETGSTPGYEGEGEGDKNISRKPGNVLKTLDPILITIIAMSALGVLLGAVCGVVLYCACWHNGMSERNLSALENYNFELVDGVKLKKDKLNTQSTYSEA

Screening COc1ccc(-c2ccc(OC)c([C@H]3[C@H]4C=CC[C@@H](C)[C@@H]4C(=O)N3Cc3ccccc3)c2)cc1C returned ARFGAP1 inh 8.3, MC4R barr agon -0.6, MC4R antagonist 1.6, Yeast UUG start -15.7, ASAP1 GAP inh -15.5 and CendR NRP1 mod 28.9*.
`CN1C(=O)c2cc(NC(=O)NCc3ccccc3)ccc2OC[C@@H]2O[C@@H](CC(=O)O)CC[C@H]21` gave Yeast UUG start -19.5.
Screening O=C1C(C2=C(O)c3ccccc3C2=O)=Nc2ccccc21 returned ARFGAP1 inh 16.2, MC4R barr agon -2.1, MC4R antagonist -8.2, Yeast UUG start -11.2, ASAP1 GAP inh 39.2* and CendR NRP1 mod 38.8*.
`C[C@@H]1CCCCO[C@H](CN(C)C(=O)Nc2ccc(C(F)(F)F)cc2)[C@H](C)CN([C@@H](C)CO)C(=O)c2cc(NC(=O)C3CCCCC3)ccc2O1` gave Yeast UUG start -7.5.
`CN(C)CCCNc1cc(C(C)(C)C)nc2c(-c3ccc(Cl)cc3)cnn12` gave ARFGAP1 inh 9.4, MC4R barr agon 8.3*, MC4R antagonist 0.5, Yeast UUG start -23.7, ASAP1 GAP inh 13.2 and CendR NRP1 mod 5.4.
For N#Cc1ccccc1NC(=O)COC(=O)CCc1ccccc1 the results were ARFGAP1 inh 0.4, MC4R barr agon 0.1, MC4R antagonist -8.1, Yeast UUG start 9.7, ASAP1 GAP inh 1.6 and CendR NRP1 mod 17.2*.
Screening C/C(=N\N=c1/sc2ccccc2n1C)c1ccccn1 returned ARFGAP1 inh 0.5, MC4R barr agon -2.9, MC4R antagonist -4.9, Yeast UUG start 4.1, ASAP1 GAP inh 11.9 and CendR NRP1 mod 26.5*.
C/C(=N\N=c1/sc2ccccc2n1C)c1ccc(N2CCOCC2)cc1 was read as ARFGAP1 inh 5.4, MC4R barr agon -2.5, MC4R antagonist -1.7, ASAP1 GAP inh -2.2 and CendR NRP1 mod -6.8.
For CNC(=O)C[C@@H]1CC[C@H]2[C@H](COc3ccc(NC(=O)Nc4cccc(Cl)c4)cc3C(=O)N2C)O1 the results were Yeast UUG start 10.4.
O=C(C[C@H]1C=C[C@@H](NC(=O)CN2CCOCC2)[C@@H](CO)O1)NC1CCCCC1 was read as Yeast UUG start 6.1.
O=C(O)c1ccc(NC2=C(Cl)C(=O)c3ccccc3C2=O)cc1 was read as ARFGAP1 inh 11.6, MC4R barr agon -3.8, MC4R antagonist 10.5, Yeast UUG start -27.4, ASAP1 GAP inh -9.2 and CendR NRP1 mod 29.0*.
Screening CCCC#Cc1ccc([C@@H]2[C@H]3CN(S(=O)(=O)c4ccccc4F)CCCCN3[C@H]2CO)cc1 returned Yeast UUG start -2.6.
CC(C)CNC(=O)COC(=O)c1c2c(nc3ccccc13)/C(=C/c1cccs1)CC2 was read as ARFGAP1 inh 11.3, MC4R barr agon 9.5*, MC4R antagonist 17.1, Yeast UUG start -8.2, ASAP1 GAP inh 3.2 and CendR NRP1 mod -41.4.
Cc1ccc(NC(=O)c2cc(N3C(=O)C4CC=CCC4C3=O)ccc2N2CCCCC2)cc1 (centres undefined) was read as ARFGAP1 inh 8.0, MC4R barr agon -0.9, MC4R antagonist -1.2, Yeast UUG start -10.0, ASAP1 GAP inh 4.2 and CendR NRP1 mod 3.8.
`Cc1ccc(NC(=O)c2cc(N3C(=O)C4CCCCC4C3=O)ccc2N2CCOCC2)cc1` (centres undefined) gave ARFGAP1 inh 3.2, MC4R barr agon -3.6, MC4R antagonist -2.4, ASAP1 GAP inh 1.9 and CendR NRP1 mod 25.0*.
COc1ccc(C(=O)Oc2ccc3oc(=O)sc3c2)cc1 was read as ARFGAP1 inh 4.5, MC4R barr agon 13.4*, MC4R antagonist -5.4, Yeast UUG start -13.5, ASAP1 GAP inh -13.0 and CendR NRP1 mod -10.2.
CN1C(=O)c2cc(NC(=O)Cc3ccccc3)ccc2OC[C@H]2O[C@@H](CC(=O)NCc3ccc(Cl)cc3)CC[C@H]21 was read as Yeast UUG start 5.3.
For C=CCN(C(=O)CSc1nc2c(sc3ccccc32)c(=O)n1CCN(CC)CC)c1ccccc1 the results were ARFGAP1 inh 8.7, MC4R barr agon 4.0, MC4R antagonist 1.5, Yeast UUG start 8.3, ASAP1 GAP inh -5.2 and CendR NRP1 mod 25.1*.
For COc1cccc(NC(=S)N(Cc2cccc(Br)c2)CC2CCC(C(=O)O)CC2)c1 (centres undefined) the results were ARFGAP1 inh -5.9, MC4R barr agon 1.5, MC4R antagonist 1.6, Yeast UUG start -27.1, ASAP1 GAP inh 11.2 and CendR NRP1 mod 30.5*.
`CC(C)NC(=O)Nc1ccc2c(c1)C(=O)N([C@H](C)CO)C[C@@H](C)[C@H](CN(C)S(=O)(=O)c1ccccc1)O2` gave Yeast UUG start 0.0.

3 compounds from above, ordered by number of heavy atoms, rising:
Screening C/C(=N\N=c1/sc2ccccc2n1C)c1ccccn1 returned ARFGAP1 inh 0.5, MC4R barr agon -2.9, MC4R antagonist -4.9, Yeast UUG start 4.1, ASAP1 GAP inh 11.9 and CendR NRP1 mod 26.5*.
CC(C)CNC(=O)COC(=O)c1c2c(nc3ccccc13)/C(=C/c1cccs1)CC2 was read as ARFGAP1 inh 11.3, MC4R barr agon 9.5*, MC4R antagonist 17.1, Yeast UUG start -8.2, ASAP1 GAP inh 3.2 and CendR NRP1 mod -41.4.
`Cc1ccc(NC(=O)c2cc(N3C(=O)C4CCCCC4C3=O)ccc2N2CCOCC2)cc1` (centres undefined) gave ARFGAP1 inh 3.2, MC4R barr agon -3.6, MC4R antagonist -2.4, ASAP1 GAP inh 1.9 and CendR NRP1 mod 25.0*.

(listing goes on)
For C[C@@H]1CN([C@@H](C)CO)C(=O)Cc2cc(NC(=O)NC3CCCCC3)ccc2O[C@H]1CN(C)S(C)(=O)=O the results were Yeast UUG start -0.7.
`COc1cc(/C=C/C(=O)OCC(=O)Nc2cc(S(=O)(=O)N(C)C)ccc2Cl)ccc1O` gave ARFGAP1 inh 0.8, MC4R barr agon 8.9*, MC4R antagonist 14.5, Yeast UUG start 6.1, ASAP1 GAP inh -3.6 and CendR NRP1 mod -9.8.
CCN(CC)S(=O)(=O)c1ccc(Cl)c(NC(=O)COC(=O)/C=C/c2ccc(O)c(OC)c2)c1 was read as ARFGAP1 inh -4.7, MC4R barr agon -1.1, MC4R antagonist 0.0, Yeast UUG start 4.3, ASAP1 GAP inh -0.5 and CendR NRP1 mod 3.1.
`COc1ccc(CN(C)C[C@@H]2Oc3c(NS(=O)(=O)c4ccccc4)cccc3C(=O)N([C@H](C)CO)C[C@@H]2C)cc1` gave Yeast UUG start 0.3.
For O=C(C[C@@H]1CC[C@@H](NC(=O)c2ccncc2)[C@@H](CO)O1)Nc1ccccc1 the results were Yeast UUG start -22.9.
`COc1cccc2c1cc1c(=O)n(CC(=O)N3CCCCCC3)nc(C)n12` gave ARFGAP1 inh 15.5, MC4R barr agon -2.5, MC4R antagonist 1.1, Yeast UUG start -11.1, ASAP1 GAP inh -0.8 and CendR NRP1 mod 24.2*.
`C[C@H]1CCCCO[C@H](CN(C)C(=O)c2ccccc2)[C@@H](C)CN([C@@H](C)CO)C(=O)c2cc(NC(=O)CCCN(C)C)ccc2O1` gave Yeast UUG start 11.4.
